Test results taken from ChEMBL document CHEMBL3758107, “Lead optimization of the VU0486321 series of mGlu(1) PAMs. Part 2: SAR of alternative 3-methyl heterocycles and progress towards an in vivo tool” (Bioorg Med Chem Lett, 2016).

Experiment: Ratio of drug level in brain to plasma in rat brain at 0.25 mg/kg, iv after 0.25 hrs by PBL cassette study
Type: ADME, organism-based

Cc1ccoc1C(=O)Nc1ccc(N2C(=O)c3cccc(C)c3C2=O)cc1F
Ratio: 0.95
